Data on 21 compounds can be found in USRE42013E1.

Chains of the proteins cited; added tags and fusions are not shown.
UniProt Q92847, whole entry: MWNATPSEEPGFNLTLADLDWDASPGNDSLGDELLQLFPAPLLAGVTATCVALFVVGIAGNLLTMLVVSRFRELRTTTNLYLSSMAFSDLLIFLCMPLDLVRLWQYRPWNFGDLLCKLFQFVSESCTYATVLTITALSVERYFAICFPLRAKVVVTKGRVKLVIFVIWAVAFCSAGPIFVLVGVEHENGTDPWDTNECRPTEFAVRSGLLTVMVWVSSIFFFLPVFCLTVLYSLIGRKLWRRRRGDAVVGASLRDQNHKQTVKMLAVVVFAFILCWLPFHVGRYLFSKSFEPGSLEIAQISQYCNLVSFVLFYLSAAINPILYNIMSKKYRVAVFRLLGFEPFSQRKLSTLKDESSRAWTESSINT
UniProt O43193, whole entry: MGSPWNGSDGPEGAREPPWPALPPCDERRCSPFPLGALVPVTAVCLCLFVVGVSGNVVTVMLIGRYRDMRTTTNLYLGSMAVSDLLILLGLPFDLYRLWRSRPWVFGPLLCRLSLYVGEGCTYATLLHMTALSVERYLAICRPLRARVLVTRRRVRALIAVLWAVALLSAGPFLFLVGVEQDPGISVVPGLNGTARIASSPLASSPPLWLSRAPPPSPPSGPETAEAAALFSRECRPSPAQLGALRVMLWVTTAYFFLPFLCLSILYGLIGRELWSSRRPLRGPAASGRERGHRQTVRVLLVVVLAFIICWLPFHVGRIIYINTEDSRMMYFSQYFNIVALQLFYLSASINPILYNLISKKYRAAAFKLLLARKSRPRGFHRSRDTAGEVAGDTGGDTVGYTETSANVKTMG

For orientation: Ki means a measure of affinity in units of concentration, obtained from inhibition or displacement. Low readings indicate a stronger hold on the target, high ones a looser hold on the target.

In data set [1] the target is human growth hormone secretagogue receptor (hGHS-R1a) (Homo sapiens, UniProt Q92847). The data set is described as follows: Competitive radioligand binding assay (ghrelin receptor), [125I]-ghrelin displacement. Conditions: for Ki: Table 3B, binding at human ghrelin receptor, [125I]-ghrelin displacement; for binding potency of linear (non-cyclized) analogues: linear analogues of compounds 10 and 133.

Another data set concerns morphine-treated rats. The experiment in a line: Gastric emptying and gastrointestinal transit in model of opioid-delayed gastric emptying. The following applies: i.v., 30 min after morphine 3 mg/kg s.c.
Data set [2] in a line: Metabolic stability in human plasma. Conditions: 37° C., free amine or HCl salt, with or without PBS.
Data set [3] has as its system gastric emptying in fasted rats. The experiment in a line: Gastric emptying in fasted rats (phenol red methylcellulose meal). The data set is classed as in vivo, rat (Wistar).
In data set [4] the test system is rats with post-operative ileus. The data set is classed as in vivo, rat (Sprague-Dawley).
Data set [5] has as its system pulsatile GH release in rat. The experiment in a line: Growth hormone response to test compounds in conscious, freely-moving rats.
Data set [6] has as its system human cytochrome P450 enzymes. The experiment in a line: Interaction profile at human cytochrome P450 enzyme subtypes (other than cyp3A4). The following applies: 0.0457 to 100 μM.
Another data set addresses motilin receptor (Homo sapiens, UniProt O43193). The experiment in a line: Selectivity versus the motilin receptor.

Structures are written as SMILES. Bounds are passed on as bounds.

For `CC[C@H](C)[C@@H]1NCCOc2ccccc2/C=C/CNC(=O)[C@H](Cc2cccc(Cl)c2)NC(=O)C2(CCCC2)NC1=O`, in data set [1], the Ki is < 100 nM. As for `CC[C@H](C)[C@@H]1NCCOc2ccccc2CCCNC(=O)[C@H](Cc2cccc(Cl)c2)NC(=O)C2(CCNC2)NC1=O` (stereo partly shown), in data set [1], the Ki is < 100 nM.

Turning to `C[C@@H]1CN[C@@H](C2CC2)C(=O)N(C)[C@H](C)C(=O)N[C@H](Cc2ccc(F)cc2)C(=O)NCCCc2ccccc2O1`, the opioid-delayed gastrointestinal transit entry in the data set on morphine-treated rats was “effectively reversed in a dose-dependent manner”. In data set [2], the “stable in human plasma for” value was “at least 24 hours”. In addition, in data set [3] (i.v. immediately after meal, 15 min), the “gastric emptying of a solid meal in naïve rat” value is listed as “significant gastric emptying in a dose-dependent manner”. The “potency superior to metoclopramide in gastric emptying” value in data set [3] (naïve rats, i.v.) was found to be 100 fold. In addition, in data set [4] (100 μg/kg i.v., n=5), the “effect on postoperative ileus in comparison to POI+vehicle treated rats” value is “significantly improves postoperative ileus”. Also, the “gastric emptying and intestinal transit in POI rats” value in data set [4] (100 and 300 μg/kg i.v.) is “significantly increased gastric emptying and intestinal transit”. In addition, in data set [5] (1000 μg/kg dose), the IGF-1 levels result is “No changes in IGF-1 levels”. The “effect on GH release” value in data set [5] (FIG. 9) is listed as “lack of effect on GH release”. Besides, the “effect on ghrelin-induced GH release” value in data set [5] (dosed 10 min prior to ghrelin) is “neither inhibits nor augments ghrelin-induced GH release”. Besides, the “pulsatile GH release in comparison to vehicle controls” value in data set [5] (doses up to 1000 μg/kg i.v.) was “no significant difference in pulsatile GH release”. For the same compound, the “inhibitory activity at cyp450 enzymes tested, except cyp3A4” value in data set [6] is given as “minimal inhibitory activity”. `CC[C@H](C)[C@@H]1NCCOc2ccccc2/C=C/CNC(=O)[C@H](COCc2ccccc2)NC(=O)C(C)(C)NC1=O` yielded a Ki in data set [1] of 100 to 10000 nM.

Consider `CC[C@H](C)[C@@H]1NCCOc2ccccc2/C=C/CNC(=O)[C@H](Cc2ccc(F)c(F)c2)NC(=O)C2(CCCC2)NC1=O`, for which, in data set [1], the Ki was < 100 nM.

With `CC[C@H](C)[C@@H]1NCCCc2ccccc2C=CCNC(=O)[C@@H](Cc2ccccc2)NC(=O)[C@@H](C)N(C)C1=O`, the Selectivity at motilin receptor is given as >800/1. Regarding `CC[C@H](C)[C@@H]1NCCOc2ccccc2/C=C/CNC(=O)[C@H](Cc2cccc(C(F)(F)F)c2)NC(=O)C2(CCCC2)NC1=O`, the Ki in data set [1] is < 100 nM. In the case of `CCC[C@@H](C(=O)N(C)CC(=O)N[C@H](Cc1ccccc1)C(N)=O)N(CCOc1ccccc1CCCN)C(C)=O`, in data set [1], the “binding potency of linear (non-cyclized) analogues” value was “lack of binding potency”. In turn, `CCC(C)C1NCCOc2ccccc2/C=C/CNC(=O)C(COCc2ccccc2)NC(=O)C(C)(C)NC1=O` (stereo not shown) returned an inhibition constant Ki in data set [1] of 100 to 10000 nM. On the same count and under the same terms, under `CCC(C)C1NCCOc2ccccc2/C=C/CNC(=O)C(Cc2cccc(Cl)c2)NC(=O)C2(CCCC2)NC1=O` (stereo not shown) stands < 100 nM. For the compound `CC[C@H](C)[C@@H]1NCCCCCCCCNC(=O)[C@@H](Cc2ccccc2)NC(=O)[C@@H](C)N(C)C1=O`, the Selectivity on motilin receptor is 28/1. `C[C@@H]1C(=O)N[C@H](Cc2ccc(F)cc2)C(=O)NCCCc2ccccc2O[C@@H](C)CN[C@@H](C2CC2)C(=O)N1C`: the inhibition constant Ki in data set [1] is < 100 nM. Turning to `CC(=O)N(CCOc1ccccc1CCCN)[C@@H](CC(C)C)C(=O)NC1(C(=O)N[C@@H](Cc2ccccc2)C(N)=O)CCCC1`, the “binding potency of linear (non-cyclized) analogues” value in data set [1] is on record as “lack of binding potency”.

Regarding `CC1C(=O)NC(Cc2ccc(F)cc2)C(=O)NCC2CC2c2ccccc2OCCNC(C2CC2)C(=O)N1C` (stereo not shown) [compound 379], the Ki in data set [1] is < 100 nM. Regarding `CC[C@H](C)[C@@H]1NCCCc2ccccc2/C=C/CNC(=O)[C@H](Cc2cccc(Cl)c2)NC(=O)C2(CCCC2)NC1=O`, in data set [1], the Ki was < 100 nM. As for `CC[C@H](C)[C@@H]1NCCCc2ccccc2/C=C/CNC(=O)[C@@H](Cc2ccc(F)cc2)NC(=O)[C@@H](C)N(C)C1=O`, the inhibition constant Ki in data set [1] was < 100 nM. For `CCC(C)[C@@H]1NC[C@@H](C)Oc2ccccc2CCCNC(=O)[C@H](Cc2cccc(Cl)c2)NC(=O)C2(CCCC2)NC1=O` (stereo partly shown), the Ki in data set [1] was < 100 nM.

On to `CC[C@H](C)[C@@H]1NCCOc2ccccc2/C=C/CNC(=O)[C@H](Cc2cc(F)cc(F)c2)NC(=O)C2(CCCC2)NC1=O`, for which the Ki in data set [1] is < 100 nM. `CCC(C)C1NCC(C)Oc2ccccc2CCCNC(=O)C(Cc2cccc(Cl)c2)NC(=O)C2(CCCC2)NC1=O` (stereo not shown): the Ki in data set [1] was < 100 nM. Still for that read-out and setting: to `CCC(C)C1NCCCc2ccccc2C=CCNC(=O)C(Cc2ccc(F)cc2)NC(=O)C(C)N(C)C1=O` (stereo not shown) belongs < 100 nM; to `CC(C)[C@@H]1NCCOc2ccccc2/C=C/CNC(=O)[C@H](Cc2ccccc2)NC(=O)C2(CCOC2)NC1=O` (single isomer, unassigned), < 100 nM.
